# According to patent publication US8207217B2, “Crystalline forms of the mono-sodium salt of D-isoglutamyl-D-tryptophan” (Apotex Technologies Inc, priority 2007, dated 2012):
# Experiment: Solubility in water
# Format: physicochemical
# Procedure: A solution of D-isoglutamyl-D-tryptophan and sodium hydroxide in water is prepared by adding solid D-isoglutamyl-D-tryptophan to sodium hydroxide solution. […] Sodium hydroxide is chosen based on the convenience in obtaining sodium hydroxide solution, however other sodium bases such as sodium hydride, sodium carbonate, sodium bicarbonate can be used. These chemicals are obvious chemical equivalents to sodium hydroxide for step (a) of the process. In step (b), the solution is filtered to remove any particulates prior to proceeding to step (c).
substance,measurement,value
mono-sodium salt of D-isoglutamyl-D-tryptophan,solubility in water,extremely soluble in water
